Chains of the proteins cited; added tags and fusions are not shown.
UniProt O14842, whole entry: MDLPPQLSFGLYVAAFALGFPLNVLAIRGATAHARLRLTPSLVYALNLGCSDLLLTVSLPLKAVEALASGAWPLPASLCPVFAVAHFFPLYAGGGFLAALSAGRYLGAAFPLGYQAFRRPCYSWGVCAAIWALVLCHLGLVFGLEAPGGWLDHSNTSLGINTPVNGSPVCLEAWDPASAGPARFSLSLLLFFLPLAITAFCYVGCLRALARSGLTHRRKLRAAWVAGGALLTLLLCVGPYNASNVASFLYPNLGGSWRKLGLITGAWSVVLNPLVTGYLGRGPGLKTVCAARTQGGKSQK

In ChEMBL document CHEMBL2384913 (ACS Med Chem Lett, 2013):

Biological target: Free fatty acid receptor 1 (Homo sapiens, UniProt O14842)
Experiment: Agonist activity at human FFA1 receptor transfected in human 1321N1 cells by calcium mobilization assay relative to TUG-20
Type: functional, cell-based

Efficacy: 103%
Compound: N#CCc1ccccc1C#Cc1ccc(CCC(=O)O)cc1
